Values joined by “and” are separate entries in the source; they are usually repeats but may differ in a detail not shown here. Equal entries are not always repeated.
How the values were obtained:
[1] = Characterization of NO release (chemiluminescence nitric oxide analyzer); type: physicochemical; settings: phosphate-buffered saline 10 mM, pH 7.4, 37 °C
[2] = test system: MatTek EpiAirway tissue (AIR-100); assay: Tissue viability assay (MTT); type: cell-based, human; settings: AIR-100 EpiAirway tissues, 24 h apical treatment with 20 µL

[O-]/[N+](=N\O)C(/[N+]([O-])=N/O)/[N+]([O-])=N/O
[NO]max, maximum instantaneous NO concentration [1]: 2800 ± 170 ppb mg^−1
[NO]t, total NO released over full duration [1]: 5.0 ± 0.7 µmol/mg
t1/2, half-life of NO release [1]: ~ 3 h and 3.6 ± 0.8 h
td, duration of NO release [1]: 42.8 ± 12.5 h
IC50 (concentration needed to inhibit tissue viability by 50%) [2]: 16,000 ± 1,000 µg mL-1

Reference: publication PMC11121837, “Impact of Nitric Oxide-Release Kinetics on Antifungal Activity” (Journal of Fungi, 2024)
